# Laboratory results reported in patent US10774087B2, “Sulfonamide derivative having coumarin skeleton” (Daiichi Sankyo Company, Limited, priority 2016, dated 2020).
# Molecular target: T1, recombinant MTHFD1 protein (dehydrogenase domain, alone) (Homo sapiens, UniProt P11586)
# T1 construct: recombinant MTHFD1 protein (dehydrogenase domain, alone)
# T1 sequence (P11586 2-291 limits assumed): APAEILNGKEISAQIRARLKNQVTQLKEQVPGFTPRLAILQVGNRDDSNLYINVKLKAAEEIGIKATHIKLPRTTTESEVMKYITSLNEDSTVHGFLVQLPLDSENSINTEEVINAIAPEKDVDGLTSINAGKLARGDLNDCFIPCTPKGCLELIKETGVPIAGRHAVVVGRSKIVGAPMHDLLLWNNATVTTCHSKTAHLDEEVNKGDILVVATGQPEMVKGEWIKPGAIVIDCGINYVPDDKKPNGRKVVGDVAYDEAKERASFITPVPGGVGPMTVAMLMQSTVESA
# Test: MTHFD1 dehydrogenase assay
# Type: biochemical
# Details: 165.4 μM NADP, room temperature 30 minutes, absorbance 355 nm
row,SMILES,IC50 [µM]
1,"Cc1c(N2CCN(C)CC2)ccc2c3c(c(=O)oc12)CN(C(=O)c1ccc(NS(C)(=O)=O)c(Cl)c1)CC3 [Example 1, N-(2-chloro-4-{[7-methyl-8-(4-methylpiperazin-1-yl)-5-oxo-1,5-dihydro-2H-chromeno[3,4-c]pyridin-3(4H)-yl]carbonyl}phenyl)methanesulfonamide]",6.4
2,"Cc1c(N2CCN(C)CC2)ccc2c3c(c(=O)oc12)CN(C(=O)c1ccc(NS(C)(=O)=O)c(OC(F)(F)F)c1)CC3 [Example 3, N-[4-{[7-Methyl-8-(4-methylpiperazin-1-yl)-5-oxo-1,5-dihydro-2H-chromeno[3,4-c]pyridin-3(4H)-yl]carbonyl}-2-(trifluoromethoxy)phenyl]methanesulfonamide]",2.9
3,"Cc1c(N2CCN(C)[C@@H](C)C2)ccc2c3c(c(=O)oc12)CN(C(=O)c1ccc(NS(C)(=O)=O)c(Cl)c1)CC3 [Example 4, N-[2-Chloro-4-({8-[(3S)-3,4-dimethylpiperazin-1-yl]-7-methyl-5-oxo-1,5-dihydro-2H-chromeno[3,4-c]pyridin-3(4H)-yl}carbonyl)phenyl]methanesulfonamide]",1.1
4,"Cc1c(N2C[C@@H](C)N(C)[C@@H](C)C2)ccc2c3c(c(=O)oc12)CN(C(=O)c1ccc(NS(C)(=O)=O)c(Cl)c1)CC3 [Example 14, N-[2-Chloro-4-({7-methyl-5-oxo-8-[(3R,5S)-3,4,5-trimethylpiperazin-1-yl]-1,5-dihydro-2H-chromeno[3,4-c]pyridin-3(4H)-yl}carbonyl)phenyl]methanesulfonamide]",4.9
